This note sets out measurements from publication PMC9064305.

The term Kd denotes the constant that tells how readily two partners part at equilibrium.

The assay deals with Recombinant human ADAMTS6-Ct (residues 558-1117) (human) (UniProt Q9UKP5). Briefly: SPR; ADAMTS6-Ct amine-coupled to a CM5 chip (1700 RU), FBN2-Nt and FBN2-Ct as analytes; Biacore 3000, 25 °C, 10 mM Hepes pH 7.4, 0.15 M NaCl, 2 mM CaCl2, 0.005% or 0.05% P20, 30 μl/min; steady state affinity method. For orientation: Surface plasmon resonance follows binding to a sensor surface in real time, without labels.

With “Human fibrillin-2 recombinant N-terminal half (rFBN2-N) (from UniProt P35556 78-2779) (domain or fragment)”, the Kd is 43 nM.

On to “Human fibrillin-2 recombinant C-terminal half (rFBN2-C) (from UniProt P35556 78-2779) (domain or fragment)”, for which the dissociation constant Kd was determined as 80 nM.
